We go through five compounds from PubChem BioAssay AID602283 (Johns Hopkins Ion Channel Center, 2012).

The list shows a part of the results, in another mix than the full data. Active and inactive are the calls of the source.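 How the source made its calls: active means inhibition exceeding 3 SD of buffer-only control wells (cut at about 26% in these data); inactive means the rest.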

This experiment in a line: M3R calcium signalling without RGS4 expression – cell-based, HEK293 M3R, non-induced RGS4, Fluo-4 calcium, counter-screen for RGS4 activator project, primary screen (AID 602283).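 Further: percent drop in integrated peak-minus-baseline over baseline Fluo4 ratio after carbachol.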 The conditions noted are these: HEK293 M3R non-induced RGS4, Fluo4 calcium flux; at 10 µM; hits give high values; after carbachol challenge at its EC90. (In general: A counterscreen serves to expose hits that act by an unwanted route or on another target.)
As to `O=C(OC1CN2CCC1CC2)C12CC3CC(CC(C3)C1)C2` (stereo not given), the inhibition was active: 94.3%.
With `CN(C(=O)Cc1ccccc1)[C@@H]1CC[C@]2(CCCO2)C[C@H]1N1CCCC1`, the inhibition is inactive: 0%.
As to `O=C(OC1CN2CCC1CC2)c1ccc(Cl)cc1` (stereo not given), the inhibition was active: 83.8%.
To `O=C(OC1CN2CCC1CC2)c1cccc(Cl)c1` (stereo not given) belongs active: 29.8%.
The figure for `CN1CCCC(OC(=O)C(c2ccccc2)c2ccccc2)C1` (stereo not given) is active: 72.8%.

One may read the inhibition as how much of the control response was suppressed.
